# Patent US20090047287A1 (Pfizer, published 2009)
# B1: GST alone (from pGEX-4T-2) (other, UniProt P08515 1-218, looked up)
# chain: MSPILGYWKIKGLVQPTRLLLEYLEEKYEEHLYERDEGDKWRNKKFELGLEFPNLPYYIDGDVKLTQSMAIIRYIADKHNMLGGCPKERAEISMLEGAVLDIRYGVSRIAYSKDFETLKVDFLSKLPEMLKMFEDRLCHKTYLNGDHVTHPDFMLYDALDVVLYMDPMCLDAFPKLVCFKKRIEAIPQIDKYLKSSKYIAWPLQGWQATFGGGDHPPK
# notes: Control of the pull-down
# Target: T1, in vitro translated full-length human 14-3-3β (from 14-3-3β-pET28a) (human, UniProt P31946 1-246)
# T1 construct: also called in vitro translated 14-3-3β
# T1 sequence (looked up): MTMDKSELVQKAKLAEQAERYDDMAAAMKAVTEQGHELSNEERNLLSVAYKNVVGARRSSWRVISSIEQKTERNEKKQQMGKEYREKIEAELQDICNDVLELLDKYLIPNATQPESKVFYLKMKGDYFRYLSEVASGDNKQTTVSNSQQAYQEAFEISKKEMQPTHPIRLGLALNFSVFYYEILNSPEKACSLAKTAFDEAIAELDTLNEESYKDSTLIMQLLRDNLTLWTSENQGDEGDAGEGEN
# Assay: GST pull-down on glutathione sepharose, immunoblot with anti-14-3-3β
# Protocol: 14-3-3β was in vitro translated from 14-3-3β-pET28a using Expressway™ in vitro protein synthesis system (Invitrogen) per manufacturer's instructions in a 50 μl reaction. GST-Ror2c in pGEX-4T-2 or pGEX-4T-2 (coding for GST alone) were transformed into BL21(DE3) strain of Escherichia coli. Cultures were grown to an A₆₀₀ of 0.7 and induced to express recombinant proteins by addition of isopropyl-1-thio-β-D-galactopyranoside (Sigma; final concentration of 1 mM) and incubation for 4 h. Bacterial pellets were harvested by centrifugation, washed in PBS, and resuspended in 30 ml of PBS supplemented with protease and phosphatase inhibitor cocktails (Sigma). Cells were lysed by passaging twice through a French Pressure Cell Press (Spectronic Instruments, Rochester, N.Y.) at 16,000 p.s.i., and bacterial debris was removed by centrifugation. The produced GST-Ror2c or GST proteins were incubated with glutathione sepharose for 4 h at 4° C. The beads were washed, resuspended in 1 ml PBS and the entire 50 μl of 14-3-3β in vitro translation reaction was added for 4 h at 4° C. At the end of this incubation, the beads were washed three times in PBS, boiled in 2xLDS-PAGE buffer with reducing agent (Invitrogen), and the solubilized proteins were separated by SDS-PAGE. The gels were transferred onto 0.45 μm nitrocellulose membrane before detection with each specific antibody.
binder,measurement,value
B1,binding result,no binding
